Assay results: the OPERA property sets (Mansouri et al. 2018)
Values after ≈ are worked out from the molar mass of the structure shown.

CC(C)NP(=O)(F)NC(C)C
solubility: 439 mM (≈ 80 mg/mL)
